Laboratory results taken from patent US20230151052A1, “NEUROSTEROID COMPOUNDS AND METHODS FOR THEIR PREPARATION AND USE IN TREATING CENTRAL NERVOUS SYSTEM DISORDERS” (published 2023).

Legend:
[1] = Stability in buffer solution
pilocarpine-induced SE = assay: Pilocarpine status epilepticus model; details: s.c.
6-Hz limbic-seizures = assay: 6-Hz model of acute seizures; details: s.c.; stimulation 15 minutes after dosing
[2] = system: hippocampus kindling seizures; assay: Hippocampus kindling model of epilepsy; details: s.c.
[3] = Plasma pharmacokinetics after iv or im dose (plasma levels of 21-OH-GX); details: rat, 10 mg/kg; for Cmax values, order for the iv and im groups: 21-OH-GX in plasma
[4] = system: DFP-induced neuronal injury and neurodegeneration; assay: Neuroprotectant efficacy in the DFP model; details: im 40 min after DFP
GABA-A receptor = assay: Whole-cell GABA-gated currents in acutely dissociated dentate gyrus granule cells (patch-clamp); details: antagonist at 10 µM
[5] = medium not stated (synthesis text)
[6] = after 24 h in pH=7 phosphate buffer
[7] = pH=7 phosphate buffer, room temperature
[8] = pH=7 phosphate buffer (table footnote)
[9] = pH=7 phosphate buffer (synthesis text)
[10] = parent drugs table, BQL= below the quantification level
[11] = after 23 h in PBS (pH=7) at room temperature

Compound: C[C@@]1(O)CC[C@@]2(C)C(CC[C@@H]3C2CC[C@]2(C)[C@@H](c4cc(CO)on4)CC[C@@H]32)C1 (stereo partly shown)
- Solubility (Aqueous solubility; [5]): < 0.001 mg/mL
- Solubility (Aqueous solubility; parent drugs table): <0.001 mg/mL

Compound: C[C@@]1(O)CC[C@@]2(C)C(CC[C@@H]3C2CC[C@]2(C)[C@@H](C(=O)COC(=O)CCC(=O)[O-])CC[C@@H]32)C1.[Na+] (stereo partly shown)
- Stability, remaining [1, 6]: 98%
- Stability (24 h), drug remaining in the buffer solution [1, 7]: 98%
- Anticonvulsant and protective ED50, Pilocarpine model (pilocarpine-induced SE): 6 mg/kg
- Anticonvulsant and protective ED50, 6-Hz model (6-Hz limbic-seizures): 2.1 mg/kg
- Solubility (Aqueous solubility; [5]): 0.96 mg/mL
- Solubility (Aqueous solubility; [8]): 0.96 mg/mL
- Anticonvulsant and protective ED50, Kindling model [2]: 3.5 mg/kg

Compound: (3-((3R,8R,10S,13S,14S,17S)-3-hydroxy-3,10,13-trimethylhexadecahydro-1H-cyclopenta[a]phenanthren-17-yl)isoxazol-5-yl)methyl L-lysinate bis-2-hydroxypropane-1,2,3-tricarboxylic acid
- Stability, prodrug remaining ([1]; after 24 h in PBS (pH=7)): 94.5%
- Stability (24 h), drug remaining in the buffer solution [1, 7]: 94.5%
- Solubility (Aqueous solubility; [5]): 5.2 mg/mL
- Solubility (Aqueous solubility; [8]): 5.2 mg/mL

Compound: CC(C)[C@H](N)C(=O)OCC(=O)[C@H]1CC[C@H]2[C@@H]3CCC4C[C@](C)(O)CC[C@]4(C)C3CC[C@]12C.Cl (stereo partly shown)
- Stability, drug remaining in the buffer solution ([1]; pH=7 phosphate buffer, room temperature, 6 h): 75% (6 h)
- Cmax values, order for the iv and im groups [3]: 21-OH-GX > 21-OH-GX valine > 21-OH-GX lysine >21-OH-GX phosphate
- Neuroprotective profile compared with ganaxolone and midazolam, DFP model [4]: superior to the parent ganaxolone and the standard anticonvulsant midazolam
- Anticonvulsant and protective ED50, Pilocarpine model (pilocarpine-induced SE): 6 mg/kg
- Anticonvulsant and protective ED50, 6-Hz model (6-Hz limbic-seizures): 2.6 mg/kg
- Solubility (Aqueous solubility; [9]): 2 mg/mL
- Solubility (Aqueous solubility; [8]): 2 mg/mL
- Anticonvulsant and protective ED50, Kindling model [2]: 3.3 mg/kg

Compound: C[C@@]1(O)CC[C@@]2(C)C(CC[C@@H]3C2CC[C@]2(C)[C@@H](C(=O)COP(=O)([O-])[O-])CC[C@@H]32)C1.[Na+].[Na+] (stereo partly shown)
- Stability ([1]; at 26 h in PBS (pH=7.4)): No decomposition observed
- Stability (24 h), drug remaining in the buffer solution [1, 7]: 100%
- Cmax values, order for the iv and im groups [3]: 21-OH-GX > 21-OH-GX valine > 21-OH-GX lysine >21-OH-GX phosphate
- Anticonvulsant and protective ED50, Pilocarpine model (pilocarpine-induced SE): 6 mg/kg
- Anticonvulsant and protective ED50, 6-Hz model (6-Hz limbic-seizures): 2.8 mg/kg
- Solubility (Aqueous solubility; PBS pH=7.4 (synthesis text)): > 10 mg/mL
- Solubility (Aqueous solubility; [8]): >10 mg/mL
- Anticonvulsant and protective ED50, Kindling model [2]: 3.5 mg/kg

Compound: CC(=O)[C@H]1CC[C@H]2[C@@H]3CCC4C[C@](C)(O)CC[C@]4(C)C3CC[C@]12C (stereo partly shown)
- Anticonvulsant and protective ED50, Pilocarpine model (pilocarpine-induced SE): 6 mg/kg
- Anticonvulsant and protective ED50, 6-Hz model (6-Hz limbic-seizures): 2 mg/kg
- Solubility (Aqueous solubility; [10]): <BQL*
- Anticonvulsant and protective ED50, Kindling model [2]: 3.5 mg/kg

Compound: C[C@@]1(O)CC[C@@]2(C)C(CC[C@@H]3C2CC[C@]2(C)[C@@H](C(=O)COC(=O)C4CCN(CC(O)CO)CC4)CC[C@@H]32)C1.Cl (stereo partly shown)
- Stability, remaining [1, 6]: 100%
- Stability (24 h), drug remaining in the buffer solution [1, 7]: 100%
- Solubility (Aqueous solubility; [9]): 0.48 mg/mL
- Solubility (Aqueous solubility; [8]): 0.48 mg/mL

Compound: COc1ccc(-c2ccc(=N)n(CCCC(=O)O)n2)cc1
- Blockade of whole-cell GABA-gated current potentiation by GX (GABA-A receptor): completely blocked

Compound: C[C@@]1(O)CC[C@@]2(C)C(CC[C@@H]3C2CC[C@]2(C)[C@@H](C(=O)COC(=O)CC(O)C(=O)O)CC[C@@H]32)C1 (stereo partly shown)
- Stability, remaining ([1]; after 24 h in PBS (pH=7.4)): 100%
- Stability (24 h), drug remaining in the buffer solution [1, 7]: 100%
- Solubility (Aqueous solubility; PBS pH=7.4 (synthesis text)): 0.406 mg/mL (≈ 874 µM)
- Solubility (Aqueous solubility; [8]): 0.41 mg/mL (≈ 882 µM)

Compound: C[C@@]1(O)CC[C@@]2(C)C(CC[C@@H]3C2CC[C@]2(C)[C@@H](C(=O)CO)CC[C@@H]32)C1 (stereo partly shown)
- Cmax values, order for the iv and im groups [3]: 21-OH-GX > 21-OH-GX valine > 21-OH-GX lysine >21-OH-GX phosphate
- Mean bioavailability administered im ([3]; im): about 96%
- Anticonvulsant and protective ED50, Pilocarpine model (pilocarpine-induced SE): 6 mg/kg
- Anticonvulsant and protective ED50, 6-Hz model (6-Hz limbic-seizures): 2.6 mg/kg
- Solubility (Aqueous solubility; [10]): <BQL*
- Anticonvulsant and protective ED50, Kindling model [2]: 3.8 mg/kg

Compound: C[C@@]1(O)CC[C@@]2(C)C(CC[C@@H]3C2CC[C@]2(C)[C@@H](C(=O)COC(=O)NCCN4CCCCC4)CC[C@@H]32)C1 (stereo partly shown)
- Stability ([1]; pH=6): Decomposition at pH=6 was visible, but not quantified
- Solubility (Aqueous solubility; PBS pH=7.4 (synthesis text)): 0.12 mg/mL (≈ 239 µM)
- Solubility (Aqueous solubility; pH=7.4): 118 µg/mL (pH=7.4)

Compound: CC(C)[C@H](N)C(=O)OCc1cc([C@H]2CC[C@H]3[C@@H]4CCC5C[C@](C)(O)CC[C@]5(C)C4CC[C@]23C)no1.O=C(O)CC(O)(CC(=O)O)C(=O)O (stereo partly shown)
- Stability, remaining ([1]; after 24 h in PBS (pH=7.4)): 100%
- Stability (24 h), drug remaining in the buffer solution [1, 7]: 100%

Compound: C[C@@]1(O)CC[C@@]2(C)C(CC[C@@H]3C2CC[C@]2(C)[C@@H](C(=O)COC(=O)C(N)CCCCN)CC[C@@H]32)C1 (stereo partly shown)
- Stability, prodrug remaining ([1]; after 24 h in PBS (pH=7)): 75%
- Solubility (Aqueous solubility; [5]): 9.7 mg/mL (≈ 20300 µM)

Compound: C[C@@]1(O)CC[C@@]2(C)C(CC[C@@H]3C2CC[C@]2(C)[C@@H](C(=O)COCP(=O)([O-])[O-])CC[C@@H]32)C1.[Na+].[Na+] (stereo partly shown)
- Stability ([1]; over 24 h in pH=7.4 PBS): no decomposition observed
- Stability (24 h), drug remaining in the buffer solution [1, 7]: 100%
- Solubility (Aqueous solubility; PBS pH=7.4 (synthesis text)): 7.3 mg/mL
- Solubility (Aqueous solubility; [8]): 7.3 mg/mL

Compound: C[C@@]1(O)CC[C@@]2(C)C(CC[C@@H]3C2CC[C@]2(C)[C@@H](c4cc(COP(=O)([O-])[O-])on4)CC[C@@H]32)C1.[Na+].[Na+] (stereo partly shown)
- Stability, prodrug remaining [1, 11]: 98.3%
- Stability (24 h), drug remaining in the buffer solution [1, 7]: 100%
- Solubility (Aqueous solubility; [5]): 4.3 mg/mL
- Solubility (Aqueous solubility; [8]): 5 mg/mL

Compound: CC(C)OC(=O)OCOP(=O)(COCc1cc([C@H]2CCC3C4CCC5C[C@](C)(O)CC[C@]5(C)C4CC[C@@]32C)no1)OCOC(=O)OC(C)C (stereo partly shown)
- Solubility (Aqueous solubility; [8]): 0.0066 mg/mL (≈ 9.25 µM)
- Solubility (Aqueous solubility; pH=7.4 buffer): 0.0066 mg/mL (≈ 9.25 µM)

Compound: C[C@@]1(O)CC[C@@]2(C)C(CCC3C2CC[C@@]2(C)C3CC[C@@H]2c2cc(COCP(=O)(O)O)on2)C1 (stereo partly shown)
- Stability, prodrug remaining [1, 11]: 98.3%
- Solubility (Aqueous solubility; [5]): 4.3 mg/mL (≈ 8930 µM)

Converted amounts (≈) assume the structure as drawn.
